Measured values taken from PMC10942606.

By UniProt entry, the sequences of proteins in these tests, tags left out.
UniProt Q1MTN9, whole entry, chain 1 of 3: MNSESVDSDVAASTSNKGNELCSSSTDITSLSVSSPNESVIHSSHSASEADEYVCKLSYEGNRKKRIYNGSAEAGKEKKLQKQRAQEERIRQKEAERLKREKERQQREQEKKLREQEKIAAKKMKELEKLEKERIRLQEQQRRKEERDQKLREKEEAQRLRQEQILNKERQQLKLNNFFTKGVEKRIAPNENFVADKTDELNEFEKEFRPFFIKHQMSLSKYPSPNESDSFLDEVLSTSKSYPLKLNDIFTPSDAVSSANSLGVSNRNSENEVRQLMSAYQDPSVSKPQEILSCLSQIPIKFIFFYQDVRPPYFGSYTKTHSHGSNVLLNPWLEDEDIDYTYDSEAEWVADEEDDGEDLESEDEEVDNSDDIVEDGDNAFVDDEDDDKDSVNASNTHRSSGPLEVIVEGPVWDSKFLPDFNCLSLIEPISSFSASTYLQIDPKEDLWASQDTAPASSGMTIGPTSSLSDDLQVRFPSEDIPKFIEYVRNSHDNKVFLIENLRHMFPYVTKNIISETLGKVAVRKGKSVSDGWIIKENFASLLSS

Target: SpCAF-1 complex (Pcf1-Pcf2-Pcf3), wild type, full length (S. pombe) (UniProt Q1MTN9)
Test: SEC-SAXS

Substance: S. pombe histones H3−H4 (from UniProt P09988 1-136; P09322 1-103) (complex)
- stoichiometry N (H3−H4 dimer per SpCAF-1): 1
